Assay results as given in ChEMBL document CHEMBL1135960 (Bioorg Med Chem Lett, 2002).

Chains of the proteins cited; added tags and fusions are not shown. Lines headed by an entry give the natural chain unless they say otherwise; changes in a name come on top.
UniProt P46098: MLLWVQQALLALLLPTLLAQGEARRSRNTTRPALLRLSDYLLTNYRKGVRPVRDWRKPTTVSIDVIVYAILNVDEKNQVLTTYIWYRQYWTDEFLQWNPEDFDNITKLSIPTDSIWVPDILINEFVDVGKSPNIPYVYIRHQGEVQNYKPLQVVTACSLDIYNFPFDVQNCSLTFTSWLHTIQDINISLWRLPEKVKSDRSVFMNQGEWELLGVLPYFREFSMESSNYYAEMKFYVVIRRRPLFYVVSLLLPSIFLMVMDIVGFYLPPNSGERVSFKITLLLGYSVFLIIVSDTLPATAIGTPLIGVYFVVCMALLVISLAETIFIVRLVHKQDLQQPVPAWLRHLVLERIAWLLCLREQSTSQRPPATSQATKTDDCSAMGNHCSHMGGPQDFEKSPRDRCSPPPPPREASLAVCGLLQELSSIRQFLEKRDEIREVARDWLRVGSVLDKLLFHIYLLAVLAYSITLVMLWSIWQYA
UniProt A5X5Y0: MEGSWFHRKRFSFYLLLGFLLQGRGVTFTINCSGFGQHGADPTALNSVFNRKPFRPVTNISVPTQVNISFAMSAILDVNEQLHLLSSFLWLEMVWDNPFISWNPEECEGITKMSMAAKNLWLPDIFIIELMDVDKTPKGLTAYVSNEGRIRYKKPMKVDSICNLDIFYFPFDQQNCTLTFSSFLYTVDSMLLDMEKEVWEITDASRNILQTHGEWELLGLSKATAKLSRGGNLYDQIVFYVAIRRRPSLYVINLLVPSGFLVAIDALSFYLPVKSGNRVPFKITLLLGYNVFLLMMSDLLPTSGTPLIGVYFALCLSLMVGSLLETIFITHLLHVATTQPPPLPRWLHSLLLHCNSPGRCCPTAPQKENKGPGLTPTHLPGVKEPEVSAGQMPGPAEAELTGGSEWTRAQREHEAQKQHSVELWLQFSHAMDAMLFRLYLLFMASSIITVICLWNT
UniProt O95264: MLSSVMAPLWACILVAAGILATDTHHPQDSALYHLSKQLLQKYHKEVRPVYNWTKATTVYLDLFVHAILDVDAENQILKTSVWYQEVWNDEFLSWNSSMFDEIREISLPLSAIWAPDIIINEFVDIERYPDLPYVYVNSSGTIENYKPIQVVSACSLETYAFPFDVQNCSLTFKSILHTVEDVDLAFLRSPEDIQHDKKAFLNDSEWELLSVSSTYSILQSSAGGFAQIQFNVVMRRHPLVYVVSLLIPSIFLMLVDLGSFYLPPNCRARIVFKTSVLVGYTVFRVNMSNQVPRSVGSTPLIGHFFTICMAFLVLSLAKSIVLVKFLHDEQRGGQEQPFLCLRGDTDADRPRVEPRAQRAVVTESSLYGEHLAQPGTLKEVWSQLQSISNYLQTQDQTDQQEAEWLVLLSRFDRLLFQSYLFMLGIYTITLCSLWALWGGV
UniProt Q70Z44: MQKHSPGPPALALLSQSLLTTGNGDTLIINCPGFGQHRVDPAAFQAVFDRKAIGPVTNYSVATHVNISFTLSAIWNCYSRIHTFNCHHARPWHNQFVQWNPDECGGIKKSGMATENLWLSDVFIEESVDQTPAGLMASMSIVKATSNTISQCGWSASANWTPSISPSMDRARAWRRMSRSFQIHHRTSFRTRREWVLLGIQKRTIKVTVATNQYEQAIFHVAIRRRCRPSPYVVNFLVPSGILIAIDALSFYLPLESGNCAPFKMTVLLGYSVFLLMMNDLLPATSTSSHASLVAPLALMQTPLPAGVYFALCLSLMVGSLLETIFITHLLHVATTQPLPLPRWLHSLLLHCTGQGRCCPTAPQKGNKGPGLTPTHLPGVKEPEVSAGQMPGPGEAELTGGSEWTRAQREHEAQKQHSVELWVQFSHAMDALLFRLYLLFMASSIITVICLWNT
UniProt Q8WXA8: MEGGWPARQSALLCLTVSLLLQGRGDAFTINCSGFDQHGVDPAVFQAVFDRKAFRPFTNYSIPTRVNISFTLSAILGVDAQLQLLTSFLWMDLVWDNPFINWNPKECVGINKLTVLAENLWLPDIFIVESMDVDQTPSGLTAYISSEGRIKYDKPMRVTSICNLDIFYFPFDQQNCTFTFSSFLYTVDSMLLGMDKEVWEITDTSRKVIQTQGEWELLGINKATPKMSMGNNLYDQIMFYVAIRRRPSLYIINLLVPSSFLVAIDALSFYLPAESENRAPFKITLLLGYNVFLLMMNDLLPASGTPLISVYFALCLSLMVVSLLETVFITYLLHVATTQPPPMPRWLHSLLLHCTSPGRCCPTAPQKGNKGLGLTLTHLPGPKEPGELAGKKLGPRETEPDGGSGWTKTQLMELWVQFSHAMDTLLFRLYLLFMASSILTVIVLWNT

Target: Serotonin 3 (5-HT3) receptor (Homo sapiens) (UniProt P46098+A5X5Y0+O95264+Q70Z44+Q8WXA8)
Assay: Intrinsic activity towards CNS 5-hydroxytryptamine 3 receptor was determined; PA: Partial agonist
Type: functional
Conditions: filed as partial agonist

SMILES: CN1CCN(c2nc3ccccc3c3c2CCCC3)CC1
- Intrinsic activity: Partial agonist
